Data taken from patent US8586591B2, “Aminopyrazine derivative and medicine” (Nippon Shinyaku Co., Ltd., priority 2009, dated 2013).
pIC50: −log10 of the molar value.

Chains of the proteins cited; added tags and fusions are not shown.
UniProt O60674, whole entry: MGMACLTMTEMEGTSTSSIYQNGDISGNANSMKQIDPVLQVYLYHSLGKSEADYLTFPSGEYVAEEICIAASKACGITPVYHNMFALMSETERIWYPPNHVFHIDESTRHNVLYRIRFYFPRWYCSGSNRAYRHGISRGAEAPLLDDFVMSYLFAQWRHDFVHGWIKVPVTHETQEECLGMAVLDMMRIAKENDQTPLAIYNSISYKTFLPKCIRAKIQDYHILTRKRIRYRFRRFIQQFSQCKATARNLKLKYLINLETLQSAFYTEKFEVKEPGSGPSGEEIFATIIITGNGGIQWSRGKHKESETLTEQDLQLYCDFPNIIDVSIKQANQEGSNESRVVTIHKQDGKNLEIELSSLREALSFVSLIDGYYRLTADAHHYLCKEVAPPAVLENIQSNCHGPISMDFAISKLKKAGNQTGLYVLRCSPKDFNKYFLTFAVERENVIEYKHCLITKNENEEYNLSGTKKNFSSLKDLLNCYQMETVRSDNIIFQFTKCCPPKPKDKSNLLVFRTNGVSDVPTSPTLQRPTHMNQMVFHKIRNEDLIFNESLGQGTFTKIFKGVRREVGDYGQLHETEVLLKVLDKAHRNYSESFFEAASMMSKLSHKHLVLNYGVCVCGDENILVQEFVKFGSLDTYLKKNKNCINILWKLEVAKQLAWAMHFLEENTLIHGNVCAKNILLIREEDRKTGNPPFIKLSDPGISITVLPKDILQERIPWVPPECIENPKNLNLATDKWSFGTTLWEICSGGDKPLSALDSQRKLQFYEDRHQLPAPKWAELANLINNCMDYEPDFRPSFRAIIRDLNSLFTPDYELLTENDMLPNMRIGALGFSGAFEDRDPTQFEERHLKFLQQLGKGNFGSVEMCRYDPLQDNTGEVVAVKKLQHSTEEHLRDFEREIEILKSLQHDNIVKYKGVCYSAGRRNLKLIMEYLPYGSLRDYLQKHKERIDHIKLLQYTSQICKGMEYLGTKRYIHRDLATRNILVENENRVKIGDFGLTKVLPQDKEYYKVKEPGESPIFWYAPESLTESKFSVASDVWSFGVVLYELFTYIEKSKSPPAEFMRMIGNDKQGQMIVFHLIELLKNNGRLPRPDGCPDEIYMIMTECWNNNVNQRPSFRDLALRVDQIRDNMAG
UniProt P52333, whole entry: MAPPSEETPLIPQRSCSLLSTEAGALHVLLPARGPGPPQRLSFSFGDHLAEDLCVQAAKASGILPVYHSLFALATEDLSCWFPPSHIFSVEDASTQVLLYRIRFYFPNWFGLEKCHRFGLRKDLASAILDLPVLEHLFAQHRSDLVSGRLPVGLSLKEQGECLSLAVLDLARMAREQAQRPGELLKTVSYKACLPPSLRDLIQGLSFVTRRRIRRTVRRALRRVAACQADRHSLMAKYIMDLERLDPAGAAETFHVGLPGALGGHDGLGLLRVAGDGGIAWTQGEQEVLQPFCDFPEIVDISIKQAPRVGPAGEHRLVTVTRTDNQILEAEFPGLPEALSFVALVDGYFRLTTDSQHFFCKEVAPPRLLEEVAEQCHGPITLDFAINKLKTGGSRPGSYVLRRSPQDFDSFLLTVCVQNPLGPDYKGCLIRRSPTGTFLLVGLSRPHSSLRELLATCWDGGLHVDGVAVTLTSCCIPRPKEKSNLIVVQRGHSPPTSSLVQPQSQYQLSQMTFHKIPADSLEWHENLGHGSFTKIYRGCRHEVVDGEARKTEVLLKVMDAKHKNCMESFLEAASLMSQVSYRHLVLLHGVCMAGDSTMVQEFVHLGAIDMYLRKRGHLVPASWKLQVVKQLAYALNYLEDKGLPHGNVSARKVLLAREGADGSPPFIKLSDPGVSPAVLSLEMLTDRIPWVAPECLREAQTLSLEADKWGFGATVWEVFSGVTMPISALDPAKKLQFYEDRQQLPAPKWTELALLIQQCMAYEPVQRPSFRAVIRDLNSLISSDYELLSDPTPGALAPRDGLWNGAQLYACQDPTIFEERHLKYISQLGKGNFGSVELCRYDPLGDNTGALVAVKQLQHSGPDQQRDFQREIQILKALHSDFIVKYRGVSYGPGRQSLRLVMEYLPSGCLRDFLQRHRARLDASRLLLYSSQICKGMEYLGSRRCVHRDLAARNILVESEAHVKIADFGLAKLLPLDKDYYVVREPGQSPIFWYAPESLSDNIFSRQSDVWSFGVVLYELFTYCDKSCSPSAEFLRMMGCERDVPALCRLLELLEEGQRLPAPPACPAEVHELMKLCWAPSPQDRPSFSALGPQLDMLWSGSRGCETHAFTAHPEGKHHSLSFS

Columns and labels:
[1] = biological target: JAK2 tyrosine kinase (Homo sapiens, UniProt O60674); assay: Test 1: inhibitory activity to JAK2 tyrosine kinase (ELISA); details: read-out: inhibitory activity to JAK2 tyrosine kinase (IC50), 25 μM ATP in substrate solution, 30° C. for 1 hour, n=2
[2] = biological target: JAK3 tyrosine kinase (Homo sapiens, UniProt P52333); assay: Test 1: inhibitory activity to JAK3 tyrosine kinase (ELISA); type: biochemical; details: read-out: inhibitory activity to JAK3 tyrosine kinase (IC50), 25 μM ATP in substrate solution, 30° C. for 1 hour, n=2

pIC50 [1] | pIC50 [2] | Structure (SMILES)
7.43 | 6.21 | C[C@H](Nc1nc(Nc2cnccn2)cc(-c2cnccc2C(N)=O)n1)c1ccc(F)cc1
8.51 | 7.29 | Cc1cnc(Nc2cc(Nc3cnccn3)nc(N[C@@H](C)c3ccc(F)cc3)n2)s1
7.72 | 5.89 | C[C@H](Nc1nc(Nc2cnccn2)cc(-c2cnccc2C#N)n1)c1ccc(F)cc1
